ChEMBL document CHEMBL3525951, “Reevaluation of the microsomal metabolism of montelukast: major contribution by CYP2C8 at clinically relevant concentrations” (Drug Metab Dispos, 2011)

By UniProt entry, the sequences of proteins in these tests, tags left out.
UniProt P20815, whole entry: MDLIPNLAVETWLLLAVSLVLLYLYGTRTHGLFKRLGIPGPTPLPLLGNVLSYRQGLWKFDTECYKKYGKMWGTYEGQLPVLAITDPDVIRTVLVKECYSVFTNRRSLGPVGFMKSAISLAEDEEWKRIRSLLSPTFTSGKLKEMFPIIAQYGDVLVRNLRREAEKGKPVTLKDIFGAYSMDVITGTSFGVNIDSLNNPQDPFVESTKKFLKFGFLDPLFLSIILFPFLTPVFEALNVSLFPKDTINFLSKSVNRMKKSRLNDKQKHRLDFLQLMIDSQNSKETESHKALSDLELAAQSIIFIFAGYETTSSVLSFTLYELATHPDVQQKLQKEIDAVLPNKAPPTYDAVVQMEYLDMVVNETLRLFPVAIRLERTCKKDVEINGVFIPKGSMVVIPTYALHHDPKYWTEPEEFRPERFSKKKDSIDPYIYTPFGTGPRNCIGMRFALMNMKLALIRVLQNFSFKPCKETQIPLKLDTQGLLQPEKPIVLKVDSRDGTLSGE

Experiments:
Type in all cases: ADME
[1] = target: T1, Cytochrome P450 3A5 (Homo sapiens, UniProt P20815); experiment: Activity of recombinant human CYP3A5 expressed in microsomes isolated from baculovirus infected insect cell assessed as enzyme-mediated 2-(1-(((1R)-1-(3-(2-(7-chloroquinolin-2-yl)vinyl)phenyl)-3-hydroxy-3-(2-(2-hydroxypropan-2-yl)phenyl)propylthio)methyl)cyclopropyl)acetic acid formation at 1 uM after 60 mins by LC-MS analysis; settings: 1 h
[2] = target: T1, Cytochrome P450 3A5; experiment: Activity of recombinant human CYP3A5 expressed in microsomes isolated from baculovirus infected insect cell assessed as intrinsic clearance for enzyme-mediated 2-(1-(((1R)-1-(3-(2-(7-chloroquinolin-2-yl)vinyl)phenyl)-3-(2-(1,2-dihydroxypropan-2-yl)phenyl)propylthio)methyl)cyclopropyl)acetic acid formation by measuring Vmax/Km at 0.02 uM
[3] = target: T1, Cytochrome P450 3A5; experiment: Activity of recombinant human CYP3A5 expressed in microsomes isolated from baculovirus infected insect cell assessed as enzyme-mediated compound depletion at 0.02 uM after 30 mins by LC-MS analysis; settings: 0.5 h
[4] = target: T1, Cytochrome P450 3A5; experiment: Activity of recombinant human CYP3A5 expressed in microsomes isolated from baculovirus infected insect cell assessed as enzyme-mediated (R)-2-(1-((1-(3-(2-(7-chloroquinolin-2-yl)vinyl)phenyl)-3-(4-hydroxy-2-(2-hydroxypropan-2-yl)phenyl)propylthio)methyl)cyclopropyl)acetic acid formation at 1 uM after 60 mins by LC-MS analysis; settings: 1 h

CC(C)(O)c1ccccc1CC[C@@H](SCC1(CC(=O)[O-])CC1)c1cccc(/C=C/c2ccc3ccc(Cl)cc3n2)c1.[Na+] [MONTELUKAST SODIUM] was tested, and the Drug metabolism [1] was “metabolite_detected”, the CL [2] was 0.16 mL/min/nmol and the Drug metabolism [3] was “metabolite_detected”. The Drug metabolism [4] was “metabolite_detected”.
